According to publication PMC4836378 (Journal of medicinal chemistry, 2016):

Molecular target: T1, CYP26A1 (Homo sapiens, UniProt O43174)
T1 sequence (O43174 1-497): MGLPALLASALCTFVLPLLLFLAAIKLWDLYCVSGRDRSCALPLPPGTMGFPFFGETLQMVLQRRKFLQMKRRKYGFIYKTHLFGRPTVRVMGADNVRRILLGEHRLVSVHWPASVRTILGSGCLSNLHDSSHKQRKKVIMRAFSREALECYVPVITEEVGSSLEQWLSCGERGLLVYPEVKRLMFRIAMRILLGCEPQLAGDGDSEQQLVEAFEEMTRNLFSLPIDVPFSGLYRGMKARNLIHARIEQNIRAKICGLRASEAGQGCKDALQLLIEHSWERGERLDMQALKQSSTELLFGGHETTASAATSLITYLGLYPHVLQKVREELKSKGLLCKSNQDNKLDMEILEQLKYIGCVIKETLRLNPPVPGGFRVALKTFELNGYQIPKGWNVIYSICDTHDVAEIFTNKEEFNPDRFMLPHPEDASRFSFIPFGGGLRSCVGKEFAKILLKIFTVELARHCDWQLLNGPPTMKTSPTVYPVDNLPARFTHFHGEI
Assay: CYP26A1 inhibition assay
Details: CYP26B1 IC50 versus CYP26A1 IC50

Selectivity towards CYP26A1 compared to CYP26B1 (ratio of IC50): > 40 fold
SMILES: CC1(C)CCC(C)(C)c2cc(C3(c4ccc(/C=C/C(=O)O)cc4)OCCO3)ccc21 [Compound 22, (E)-3-(4-(2-(5,5,8,8-Tetramethyl-5,6,7,8-tetrahydronaphthalen-2-yl)-1,3-dioxolan-2-yl)phenyl)-acrylic acid]
